According to patent US20230220021A1, “CYCLIC PEPTIDE INHIBITORS OF PSD-95 AND USES THEREOF” (University of Copenhagen, priority 2020, published 2023):

Legend:
Assay type in all cases: binding
[1] = target: T1, PSD-95-PDZ2 H225A (Homo sapiens, UniProt P78352, H225A); assay: FP saturation assay against PSD-95-PDZ2 Ala mutant H225A; details: H225A mutation; TAMRA probes
T1 construct: measured against recombinantly expressed PSD-95-PDZ2 Ala mutants in FP saturation experiments; 7xHis (N); made in house; host or cells: Escherichia coli B21 pLys
Excerpt: (§1) Protein expression. The pRSET plasmids encoding the (7× His)-PSD-95-PDZ2 wild type and (7× His)-PSD-95-PDZ2-V178C sequences were obtained as described previously.^38 The DNA constructs encoding the PSD-95-PDZ2 mutants (K165A, K168A, F172A, F1721, S173A, N180A, T192A, K193A, H225A, E226A, V229A K233A) were produced using Phusion® site-directed mutagenesis kit on the pRSET plasmid of the wild type PSD-95-PDZ2 and with the primers listed in Table 1. The PSD-95-PDZ2 mutants were transformed and expressed as previously described,^38 in Escherichia coli B21 pLys cells at 37° C. and 0.5 mM isopropyl-D-thiogalactopyranoside (IPTG). […] Protein concentration was measured by NanoDrop 1000 and mass determination of proteins was analyzed using an Agilent 6410 triple quadrupole LC-MS with a Poroshell column, 300SB-C18 2.1×75 mm in a linear gradient of 5% to 60% B, using a binary solvent system [A: H2O/MeCN/TFA, 94.9/5/0.1 and B: H2O/MeCN/TFA, 5/94.9/0.1] with a flow of 0.75 mL min^−1. […] The proteins were analyzed using the following gradient: from 5% to 60% B for 4 min. and from 60 to 100% B from 4 to 4.5 min.
(§2) Fluorescence polarization (FP). […] Fluorescence polarization was measured using a Safire 2 plate reader. […] Then, the polarization was fitted into a one-site binding model using Prism software 8.0 (GraphPad), from which the Kd can be measured. […]

[2] = target: T2, PSD-95-PDZ2 V229A (Homo sapiens, UniProt P78352, V229A); assay: FP saturation assay against PSD-95-PDZ2 Ala mutant V229A; details: V229A mutation; TAMRA probes
T2 construct: measured against recombinantly expressed PSD-95-PDZ2 Ala mutants in FP saturation experiments; 7xHis (N); made in house; host or cells: Escherichia coli B21 pLys
Excerpt: as §1, §2

[3] = target: T3, PSD-95-PDZ2 K165A (Homo sapiens, UniProt P78352, K165A); assay: FP saturation assay against PSD-95-PDZ2 Ala mutant K165A; details: K165 mutation; TAMRA probes
T3 construct: measured against recombinantly expressed PSD-95-PDZ2 Ala mutants in FP saturation experiments; 7xHis (N); made in house; host or cells: Escherichia coli B21 pLys
Excerpt: as §1, §2

fold decrease in affinity (Kd mutant normalized to PSD-95-PDZ2 WT) [1]: completely abolished | fold loss in affinity (Kd mutant normalized to PSD-95-PDZ2 WT) [2]: 6 fold | fold loss in affinity (Kd mutant normalized to PSD-95-PDZ2 WT) [3]: 4 fold
SMILES: CC[C@H](C)[C@@H]1NC(=O)[C@H]([C@@H](C)O)NC(=O)[C@H](CCCCN)NC(=O)[C@@H]2CCCN2C(=O)[C@H]([C@@H](C)O)NC(=O)CNC(=O)[C@H](CC(=O)O)NC(=O)CNC(=O)[C@H]([C@@H](C)O)NC(=O)[C@H](Cc2ccccc2)NC(=O)[C@H]([C@@H](C)O)NC(=O)[C@H]([C@@H](C)O)NC(=O)[C@H](CCC(=O)O)NC(=O)[C@H](CC(C)C)NC(=O)[C@H](Cc2c[nH]cn2)NC(=O)[C@H]([C@@H](C)O)NC(=O)[C@H](CSC2CC(=O)N(CCNC(=O)c3ccc4c(c3)C(=O)OC43c4ccc(N(C)C)cc4Oc4cc(N(C)C)ccc43)C2=O)NC(=O)CNC(=O)[C@H]2CCCN2C(=O)[C@H](CCC(N)=O)NC(=O)[C@H]([C@@H](C)O)NC(=O)[C@H](C(C)C)NC(=O)[C@H](CCCNC(=N)N)NC1=O (stereo partly drawn) [cyclic nNOS TAM RA probe]
